These results are taken from patent US7341730B1, “Inhibitors of angiogenesis and tumor growth” (University of Southern California, priority 1998, dated 2008).

In test [1] the test system is endothelial cells (HUVEC). As to the kind of experiment: Growth inhibition of endothelial cells. Type of test: cell-based. As for the experimental part:
Typically, in an anti-proliferation assay, the suppression of growth in the presence of the compound to be tested is measured. For example, the above cells are incubated with the polypeptides of this invention for a suitable time and the decrease in the growth rate relative to a negative control, i.e., cells of the same cell line which have been incubated in media alone, is measured. Growth of the cell culture can be measured by any method acceptable to one of skill, including but not limited to, 3H-thymidine uptake, cell counting and tetrazolium dye uptake.
By SDS-PAGE, the bacterial product was smaller than the eukaryotic protein. Because prokaryotically expressed proteins are not glycosylated, the difference in molecular weights probably represents the presence of carbohydrate in the eukaryotic protein. Recombinant proteins were then tested in KS, endothelial and control cell lines. Activity was found only in KS cell lines and endothelial cells.

Test [2] concerns fibroblast cells (T1). As to the kind of experiment: Fibroblast proliferation assay (MTT), control cells. The class given is cell-based. The conditions noted are these: concentration not printed. How it is done: (§1) To determine if Saposin B polypeptides had anti-angiogenic activity, a series of overlapping polypeptides were synthesized and tested in the KS Y-1 cell proliferation assay. The overlapping polypeptides are SEQ ID NOs:13 though 43. Cell Proliferation assays in either KS cells or fibroblast. Cells were plated in 48 well plates at equal numbers in appropriate culture medium. Cells were treated with the test compounds at various concentrations on day one, and on day 3. MTT was done on day 5. KS cells were used to represent the activated endothelial cells, while fibroblast cells represent the control cells. The results are remarkable for the lack of toxicity to the fibroblast relative to the activated endothelial cells/KS cells.

In test [3] the test system is KS Y-1 cells. The test can be described thus: KS Y-1 cell proliferation assay (MTT). Type of test: cell-based. The settings on record: concentration not given. How it is done:
as §1

For test [4], the system named is KS-SLK or KS Y-1 tumors. As to the kind of experiment: KS tumor growth in nude mice. The class given is in vivo. The conditions noted are these: 50 mg/kg subcutaneously daily from the day after implantation; FIG. 6. As for the experimental part: FIG. 6: Effect of pentapeptide DVCQD (SEQ ID NO:28) on the growth of established KS Y-1 tumors in mice. Mice were implanted with the tumor on day one. Treatment with the peptide was started on the following day at a dose of 50 mg/kg subcutaneously daily. […] The arrow marks initiation of daily subcutaneous dosing.
In order to determine the anti-angiogenic activity of the recombinant Saposin B, tumor cells were implanted in immuno-deficient mice and treated with either Saposin B or buffer alone.
Nude mice were injected with 2×10^6 KS-SLK or KS Y-1 cells subcutaneously in a total volume of 100 μL. After one week of tumor development, the mice were injected subcutaneously daily with either PBS or Saposin B at concentrations of 1, 10 and 20 mg/kg for a total protein concentration of […]. The tumor size was measured three times a week. The results represent the median of 4 mice in each group.
To determine whether this anti-tumor effect was reproducible with different classes of syngeneic-tumors, C57BL/6 mice were implanted with Lewis lung carcinoma, melanoma (B16), and T-cell lymphoma (EL-4) cell lines. KS Y-1 was implanted into nude mice for a positive control. The day following tumor implantation, 2.5 mg/kg of Saposin B was administered intraperitoneally. Tumor size was measured three times a week for two weeks at which time the mice were sacrificed for analysis. […]

For the compound `CC(C)[C@H](NC(=O)[C@@H](N)CC(=O)O)C(=O)N[C@@H](CS)C(=O)N[C@@H](CCC(N)=O)C(=O)N[C@@H](CC(=O)O)C(=O)O` [SEQ ID NO:28, DVCQD], in test [1], the “growth inhibition / activity against endothelial cells” value was “Only endothelial cells show dose dependent growth inhibition”. Besides, the “Cell Proliferation Activity (% of control), T1” value was 91 % of control in test [2] (T1, first value column) and 87 % of control in test [2] (T1, second value column). The “Cell Proliferation Activity (% of control), KS Y-1” value is 30 % of control in test [3] (KS Y-1, first value column) and 10 % of control in test [3] (KS Y-1). The “growth of KS Y-1 tumors in mice (tumor volumes)” value in test [4] is “significantly smaller”.
